From PMC4740242 (Cell reports, 2016)

What was measured:
Format in all cases: biochemical
Conditions in all cases: single-dose screen
[1] = biological target: EGFR (Homo sapiens, UniProt P00533); experiment: Wild-type kinase panel, EGFR
[2] = biological target: ERBB2 (Homo sapiens, UniProt P04626); experiment: Wild-type kinase panel, ERBB2
[3] = biological target: T1, BMX/ETK (Homo sapiens, UniProt P51813); experiment: Wild-type kinase panel, BMX/ETK
T1 sequence (P51813 1-675): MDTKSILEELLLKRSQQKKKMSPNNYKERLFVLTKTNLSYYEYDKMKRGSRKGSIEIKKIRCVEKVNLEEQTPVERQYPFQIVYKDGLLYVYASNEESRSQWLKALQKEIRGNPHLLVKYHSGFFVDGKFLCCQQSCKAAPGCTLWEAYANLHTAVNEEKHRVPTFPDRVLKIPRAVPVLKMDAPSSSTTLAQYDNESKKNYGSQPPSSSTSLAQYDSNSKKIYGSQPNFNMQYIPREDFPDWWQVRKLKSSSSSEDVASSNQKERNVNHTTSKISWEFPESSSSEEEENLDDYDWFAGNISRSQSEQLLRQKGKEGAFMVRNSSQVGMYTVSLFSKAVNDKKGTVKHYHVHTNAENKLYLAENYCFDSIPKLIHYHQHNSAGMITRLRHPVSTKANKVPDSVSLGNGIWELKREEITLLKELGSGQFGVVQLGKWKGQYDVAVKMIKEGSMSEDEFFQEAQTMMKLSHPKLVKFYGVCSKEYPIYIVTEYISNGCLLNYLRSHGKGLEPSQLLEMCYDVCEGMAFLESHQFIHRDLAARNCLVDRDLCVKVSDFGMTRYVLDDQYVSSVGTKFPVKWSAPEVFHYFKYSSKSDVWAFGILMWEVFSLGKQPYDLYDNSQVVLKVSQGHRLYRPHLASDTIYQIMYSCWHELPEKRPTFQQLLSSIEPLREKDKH

EGFR/ErbB2/ErbB4 Inhibitor
more than 50%: inhibition of EGFR [1] | inhibition of ERBB2 [2] | inhibition of BMX/ETK [3]
